Data reported in patent US6642040B2, “Human cGMP-stimulated cyclic nucleotide phosphodiesterase” (The Board of Regents of the University of Washington, priority 1991, dated 2003).

Test system: cAMP hydrolysis
Assay: CaM-PDE activity of extracts of COS-7 cells transfected with 59 kDa CaM-PDE cDNA
Type: biochemical, bovine
Conditions: COS-7 cell extracts, 2 μM cAMP
Protocol: COS cells were scraped from the plates and homogenized in a buffer containing 40 mM Tris-HCl (pH=7.5), 5 mM EDTA, 15 mM benzamidine, 15 mM beta-mercaptoethanol, 1 μg per ml pepstatin A and 1 μg per ml peupeptin using a Dounce homogenizer (1 ml per 100 mm plate). Homogenates were assayed for PDE activity according to the procedures of Hanson et al., Proc. Nat'l. Acad. Sci. U.S.A., 79:2788-2792 (1982), using [^3H]cGMP as the substrate. Reactions were carried out at 300 for 10 minutes in a buffer containing 20 mM Tris-HCl (pH=7.5), 20 mM imidazole (pH=7.5), 3 mM MgCl2, 15 mM Mg acetate, 0.2 mg per ml BSA and 1 μM ^3H-cAMP with either 2 mM EGTA or 0.2 mM CaCl2 and 4 μg per ml CaM. Assays were stopped by incubating the tubes in a 900 water bath for 1 minute. After cooling, 10 μl of 2.5 mg per ml snake venom was added to each assay and incubated at 370 for 5 minutes. The samples were diluted with 250 μl of 20 mM Tris-HCl (pH=7.5) and immediately applied to 0.7 ml A-25 ion exchange columns. The columns were washed three times with 0.5 ml of 20 mM Tris-HCl (pH=7.5) and the eluate was collected in scintillation vials. Samples were counted for 1 minute using a Packard Model 1600TR scintillation counter. Specific cyclic nucleotide hydrolytic activity was expressed as picomoles cAMP or cGMP hydrolyzed per minute per mg protein. […]

B1: p5′9KCAMPDE-2: expression product of cDNA encoding bovine lung 59 kDa CaM-PDE (SEQ ID NO: 17) (protein)
chain: MDDHVTIRRKHLQRPIFRLRCLVKQLEKGDVNVIDLKKNIEYAASVLEAVYIDETRRLLDTDDELSDIQSDSVPSEVRDWLASTFTRKMGMMKKKSEEKPRFRSIVHVVQAGIFVERMYRKSYHMVGLAYPEAVIVTLKDVDKWSFDVFALNEASGEHSLKFMIYELFTRYDLINRFKIPVSCLIAFAEALEVGYSKYKNPYHNLIHAADVTQTVHYIMLHTGIMHWLTELEILAMVFAAAIHDYEHTGTTNNFHIQTRSDVAILYNDRSVLENHHVSAAYRLMQEEEMNVLINLSKDDWRDLRNLVIEMVLSTDMSGHFQQIKNIRNSLQQPEGLDKAKTMSLILHAADISHPAKSWKLHHRWTMALMEEFFLQGDKEAELGLPFSPLCDRKSTMVAQSQIGFIDFIVEPTFSLLTDSTEKIIIPLIEEDSKTKTPSYGASRRSNMKGTTNDGTYSPDYSLASVDLKSFKNSLVDIIQQNKERWKELAAQGEPDPHKNSDLVNAEEKHAETHS
stimulation of cAMP hydrolytic activity in the presence of calcium and calmodulin: 4-5 fold
